This experiment concerns the target N-terminally truncated recombinant hDHODH enzyme (Homo sapiens, UniProt Q02127). The experiment can be described thus: biochemical.

Protein sequences, listed by entry. Tags and fused reporters are not part of them. Lines headed by an entry give the natural chain unless they say otherwise; changes in a name come on top.
UniProt Q02127: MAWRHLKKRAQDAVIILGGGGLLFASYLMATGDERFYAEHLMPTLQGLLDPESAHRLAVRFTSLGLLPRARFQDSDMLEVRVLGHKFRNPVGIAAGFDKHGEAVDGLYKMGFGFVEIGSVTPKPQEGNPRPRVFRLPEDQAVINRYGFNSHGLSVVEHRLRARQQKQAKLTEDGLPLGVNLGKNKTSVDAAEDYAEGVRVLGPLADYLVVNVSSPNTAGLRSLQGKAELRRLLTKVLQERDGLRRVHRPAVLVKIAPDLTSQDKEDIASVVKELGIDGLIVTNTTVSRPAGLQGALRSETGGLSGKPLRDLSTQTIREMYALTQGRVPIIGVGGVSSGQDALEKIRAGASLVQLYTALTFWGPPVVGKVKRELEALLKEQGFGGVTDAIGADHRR

This note sets out measurements from patent publication US20250066290A1, “DHODH INHIBITORS CONTAINING A CARBOXYLIC ACID BIOISOSTERE” (IMMUNIC AG, priority 2021, published 2025).

The IC50 is the concentration that gives 50% inhibition. Regarding `[2H]C([2H])([2H])Oc1cccc(-c2cc(F)c(NC(=O)C3=C(C(=O)NOC)CSC3)c(F)c2)c1` [Example 6, N^3-(3,5-Difluoro-3′-(methoxy-d3)-[1,1′-biphenyl]-4-yl)-N^4-methoxy-2,5-dihydrothiophene-3,4-dicarboxamide], the IC50 is less than 100 nM.
